# Assay results reported in patent US6482609B1, “Isolated human EDG-4 receptor and polynucletide encoding said receptor” (priority 1997, dated 2002).
# Legend:
# [1] = test system: human EDG-3; assay: NF-κB luciferase reporter in 293-EBNA cells, EDG-3; assay type: cell-based; details: EDG-3 clone pC3-E3HP2; 3 μM; 6 hours
# Procedure: 2) 3 μg NFκB-tk-p4Luc reporter DNA and 3 μg pC3-hedg1, pC3-hedg3, pC3-redg4, pC3-hedg5 or pcDNA3 DNA was diluted in 240 μl OPTI-MEM (Gibco; Cat. 31985-062)
# Transient Transfection Protocol for 293-EBNA (Assay 3):
# The protocol described in Example 11 for Assay 1 was followed except for the following changes:
# 2) SRE Cotransfection: 0.5 μg of 2XSREtk-p4Luc-zeo reporter DNA and 3.5 μg pcDNA3, EDG-1, EDG-3 (pC3-hE3HP2, different from the clone used in Assay 2 of Example 11) or the newly cloned human EDG-4 (pC3-hedg4#36); NF-κB Cotransfection: 2 μg 6XNFκBtk-p4Luc-zeo reporter DNA and 2.0 μg pcDNA3, EDG-1, EDG-3 (pC3-hE3HP2), or EDG-4 (pC3-hedg4#36). Expression plasmid and reporter plasmid DNA samples were combined and diluted in 750 μl of DMEM/F12 (serum free media) and 20 μl Plus Reagent (Lipofectamine Plus Kit, Life Technologies Cat. 10964-013), and incubated at room temperature for 15 min.
# 3) 30 μl Lipofectamine Reagent (Lipofectamine Plus Kit) was diluted in 750 μl DMEM/F12. The diluted Lipofectamine was then combined with the DNA/Plus mixture and incubated at room temperature for 15 min.
# 6) The transfection medium was replaced with serum-free DMEM/F12 for cells transfected with 2XSREtk-p4Luc-zeo reporter DNA and with DMEM/F12 plus 10% FBS for cells tansfected with 6XNFκBtk-p4Luc-zeo reporter DNA. […]
# [2] = test system: human EDG-4 fusion protein with Jellyfish Green Fluorescent Protein (GFP); details: 3 clones of EDG-4/GFP; 1 or 5 μM S1P
compound,measurement,setting,value
"CCCCCCCCCCCCC/C=C/[C@@H](O)[C@@H](N)COP(=O)(O)O [S1P, sphingosine-1-phosphate]",Induction of the NF-κB reporter gene compared to untreated controls,[1],about 8 fold
same,SRE response of EDG-4/GFP clones compared with EDG-4 parent,[2],did not differ significantly from the EDG-4 parent
